Values of other authors as cited in patent publication EP0533724B1, “CALCIUM CITRATE MALATE COMPOSITION” (THE PROCTER & GAMBLE COMPANY, priority 1990, dated 1991).

Conditions: water, 25°C, cited from earlier work
[1] = reference (1) "Solubilities", 4th Edition, W. F. Linke

Substance	g Salt/100 ml H₂O [1]	g Salt/100 ml H₂O (reference (2) CRC Handbook of Chemistry and Physics, 67th Edition)
Calcium Oxide	0.1 g Salt/100 ml H₂O	
Calcium Malate· 3 H₂O	0.31 g Salt/100 ml H₂O	0.4 g Salt/100 ml H₂O

Where two headings read alike, the source gives them in different places.
